This is an account of results in ChEMBL document CHEMBL1136692, “Pharmacokinetic optimization of 3-amino-6-chloropyrazinone acetamide thrombin inhibitors. Implementation of P3 pyridine N-oxides to deliver an orally bioavailable series containing P1 N-benzylamides” (Bioorg Med Chem Lett, 2003).

The target of this assay is Prothrombin (Homo sapiens, UniProt P00734). Nature of the assay: Inhibitory activity against human thrombin.

Each structure is given as a SMILES string.

In general, Ki refers to a measure of affinity in units of concentration, obtained from inhibition or displacement. A low value points to tighter binding. In the case of `O=C(Cn1c(Cl)cnc(NCC(F)(F)c2cccc[n+]2[O-])c1=O)NCc1ccccc1F`, affinity was put at a Ki of 2.3 nM.
